Twelve molecules from ChEMBL document CHEMBL1148385, “Synthesis and opioid activity of side-chain-to-side-chain cyclic dynorphin A-(1-11) amide analogues cyclized between positions 2 and 5. 1. Substitutions in position 3” (J Med Chem, 2004) can be followed below.

Common to all, as to type: protein assay
The test system of assay [1] is opioid receptors kappa/mu (Rattus norvegicus), delta (Mus musculus). Nature of the assay: Compound was evaluated for opioid receptor selectivity, expressed as Ki ratio (kappa/mu/delta); 1/14/>1000.
Assay [2] shares this test system. As to the kind of experiment: Compound was evaluated for opioid receptor selectivity, expressed as Ki ratio (kappa/mu/delta); 1/18/662.
For assay [3] the test system is unchanged. As to the kind of experiment: Compound was evaluated for opioid receptor selectivity, expressed as Ki ratio (kappa/mu/delta); 1/3.2/422.
For assay [4] the test system is unchanged. Nature of the assay: Compound was evaluated for opioid receptor selectivity, expressed as Ki ratio (kappa/mu/delta); 1/1.6/5320.
Assay [5] shares this test system. As to the kind of experiment: Compound was evaluated for opioid receptor selectivity, expressed as Ki ratio (kappa/mu/delta); 7.2/1/53.
Assay [6] has the same test system. Nature of the assay: Compound was evaluated for opioid receptor selectivity, expressed as Ki ratio (kappa/mu/delta); 1.5/1/228.
For assay [7] the test system is unchanged. Nature of the assay: Compound was evaluated for opioid receptor selectivity, expressed as Ki ratio (kappa/mu/delta); 1/2.3/28.
The test system is the same in assay [8]. Nature of the assay: Compound was evaluated for opioid receptor selectivity, expressed as Ki ratio (kappa/mu/delta); 1/27/108.
Assay [9] shares this test system. As to the kind of experiment: Compound was evaluated for opioid receptor selectivity, expressed as Ki ratio (kappa/mu/delta); 1/8.5/199.
The test system is the same in assay [10]. As to the kind of experiment: Compound was evaluated for opioid receptor selectivity, expressed as Ki ratio (kappa/mu/delta); 1/2.3/64.
Assay [11] has the same test system. Nature of the assay: Compound was evaluated for opioid receptor selectivity, expressed as Ki ratio (kappa/mu/delta); 1/3.6/645.
The test system is the same in assay [12]. As to the kind of experiment: Compound was evaluated for opioid receptor selectivity, expressed as Ki ratio (kappa/mu/delta); 1/2.5/692.

For `CC[C@H](C)[C@H](NC(=O)[C@H](CCCN=C(N)N)NC(=O)[C@H](CCCN=C(N)N)NC(=O)[C@H]1CNC(=O)C[C@@H](NC(=O)[C@@H](N)Cc2ccc(O)cc2)C(=O)N2CCC[C@H]2C(=O)N[C@H](Cc2ccccc2)C(=O)N1)C(=O)N[C@@H](CCCN=C(N)N)C(=O)N1CCC[C@H]1C(=O)N[C@@H](CCCCN)C(N)=O`, the Ki ratio entry in [1] is “kappa/mu/delta”.
In the case of `CC[C@H](C)[C@H](NC(=O)[C@H](CCCN=C(N)N)NC(=O)[C@H](CCCN=C(N)N)NC(=O)[C@H]1CNC(=O)C[C@@H](NC(=O)[C@@H](N)Cc2ccc(O)cc2)C(=O)N[C@H](C)C(=O)N[C@H](Cc2ccccc2)C(=O)N1)C(=O)N[C@@H](CCCN=C(N)N)C(=O)N1CCC[C@H]1C(=O)N[C@@H](CCCCN)C(N)=O`, the Ki ratio entry in [2] is reported as “kappa/mu/delta”.
In the case of `CC[C@H](C)[C@H](NC(=O)[C@H](CCCN=C(N)N)NC(=O)[C@H](CCCN=C(N)N)NC(=O)[C@H]1CNC(=O)C[C@@H](NC(=O)[C@@H](N)Cc2ccc(O)cc2)C(=O)N[C@H](Cc2c[nH]c3ccccc23)C(=O)N[C@H](Cc2ccccc2)C(=O)N1)C(=O)N[C@@H](CCCN=C(N)N)C(=O)N1CCC[C@H]1C(=O)N[C@@H](CCCCN)C(N)=O`, the Ki ratio result in assay [3] is “kappa/mu/delta”.
Consider `CC[C@H](C)[C@H](NC(=O)[C@H](CCCN=C(N)N)NC(=O)[C@H](CCCN=C(N)N)NC(=O)[C@H]1CNC(=O)C[C@@H](NC(=O)[C@@H](N)Cc2ccc(O)cc2)C(=O)N[C@@H](Cc2c[nH]c3ccccc23)C(=O)N[C@H](Cc2ccccc2)C(=O)N1)C(=O)N[C@@H](CCCN=C(N)N)C(=O)N1CCC[C@H]1C(=O)N[C@@H](CCCCN)C(N)=O`, for which the Ki ratio entry in assay [4] is on record as “kappa/mu/delta”.
As for `CC[C@H](C)[C@H](NC(=O)[C@H](CCCN=C(N)N)NC(=O)[C@H](CCCN=C(N)N)NC(=O)[C@H](CN)NC(=O)[C@H](Cc1ccccc1)NC(=O)CNC(=O)[C@@H](CC(=O)O)NC(=O)[C@@H](N)Cc1ccc(O)cc1)C(=O)N[C@@H](CCCN=C(N)N)C(=O)N1CCC[C@H]1C(=O)N[C@@H](CCCCN)C(N)=O`, in assay [5], the Ki ratio entry was “kappa/mu/delta”.
Take `CC[C@H](C)[C@H](NC(=O)[C@H](CCCN=C(N)N)NC(=O)[C@H](CCCN=C(N)N)NC(=O)[C@H](CN)NC(=O)[C@H](Cc1ccccc1)NC(=O)[C@@H](C)NC(=O)[C@@H](CC(=O)O)NC(=O)[C@@H](N)Cc1ccc(O)cc1)C(=O)N[C@@H](CCCN=C(N)N)C(=O)N1CCC[C@H]1C(=O)N[C@@H](CCCCN)C(N)=O`: the Ki ratio result in [6] is recorded as “mu/kappa/delta”.
As for `CC[C@H](C)[C@H](NC(=O)[C@H](CCCN=C(N)N)NC(=O)[C@H](CCCN=C(N)N)NC(=O)[C@H]1CNC(=O)C[C@@H](NC(=O)[C@@H](N)Cc2ccc(O)cc2)C(=O)N[C@@H](C)C(=O)N[C@H](Cc2ccccc2)C(=O)N1)C(=O)N[C@@H](CCCN=C(N)N)C(=O)N1CCC[C@H]1C(=O)N[C@@H](CCCCN)C(N)=O`, the Ki ratio result in assay [7] is listed as “kappa/mu/delta”.
On to `CC[C@H](C)[C@H](NC(=O)[C@H](CCCN=C(N)N)NC(=O)[C@H](CCCN=C(N)N)NC(=O)[C@H](CC(C)C)NC(=O)[C@H](Cc1ccccc1)NC(=O)[C@H](Cc1c[nH]c2ccccc12)NC(=O)CNC(=O)[C@@H](N)Cc1ccc(O)cc1)C(=O)N[C@@H](CCCN=C(N)N)C(=O)N1CCC[C@H]1C(=O)N[C@@H](CCCCN)C(N)=O`, for which the Ki ratio result in assay [8] is recorded as “kappa/mu/delta”.
Regarding `CC[C@H](C)[C@H](NC(=O)[C@H](CCCN=C(N)N)NC(=O)[C@H](CCCN=C(N)N)NC(=O)[C@H](CC(C)C)NC(=O)[C@H](Cc1ccccc1)NC(=O)[C@@H](Cc1c[nH]c2ccccc12)NC(=O)CNC(=O)[C@@H](N)Cc1ccc(O)cc1)C(=O)N[C@@H](CCCN=C(N)N)C(=O)N1CCC[C@H]1C(=O)N[C@@H](CCCCN)C(N)=O`, in assay [9], the Ki ratio result was “kappa/mu/delta”.
In the case of `CC[C@H](C)[C@H](NC(=O)[C@H](CCCN=C(N)N)NC(=O)[C@H](CCCN=C(N)N)NC(=O)[C@H](CN)NC(=O)[C@H](Cc1ccccc1)NC(=O)[C@H](C)NC(=O)[C@@H](CC(=O)O)NC(=O)[C@@H](N)Cc1ccc(O)cc1)C(=O)N[C@@H](CCCN=C(N)N)C(=O)N1CCC[C@H]1C(=O)N[C@@H](CCCCN)C(N)=O`, the Ki ratio result in assay [10] is “kappa/mu/delta”.
`CC[C@H](C)[C@H](NC(=O)[C@H](CCCN=C(N)N)NC(=O)[C@H](CCCN=C(N)N)NC(=O)[C@H](CN)NC(=O)[C@H](Cc1ccccc1)NC(=O)[C@@H](Cc1c[nH]c2ccccc12)NC(=O)[C@@H](CC(=O)O)NC(=O)[C@@H](N)Cc1ccc(O)cc1)C(=O)N[C@@H](CCCN=C(N)N)C(=O)N1CCC[C@H]1C(=O)N[C@@H](CCCCN)C(N)=O`: the Ki ratio entry in assay [11] is on record as “kappa/mu/delta”.
For `CC[C@H](C)[C@H](NC(=O)[C@H](CCCN=C(N)N)NC(=O)[C@H](CCCN=C(N)N)NC(=O)[C@H](CN)NC(=O)[C@H](Cc1ccccc1)NC(=O)[C@H](Cc1c[nH]c2ccccc12)NC(=O)[C@@H](CC(=O)O)NC(=O)[C@@H](N)Cc1ccc(O)cc1)C(=O)N[C@@H](CCCN=C(N)N)C(=O)N1CCC[C@H]1C(=O)N[C@@H](CCCCN)C(N)=O`, in [12], the Ki ratio entry is listed as “kappa/mu/delta”.
